Apparent affinities of Ab-14 variants for a coronavirus HR2 peptide

Values reported by Li et al. 2023, doi:10.1038/s41467-023-39022-2 (FLAb copy).

All variants were tested on one target, the spike HR2 peptide PDVDLGDISGINAS (SARS-CoV-2).

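Phage display of a naive human antibody library on the peptide gave the parent. The variants were designed computationally from a first round of random CDR variants and then made and measured. Their group label is 14L_En_Gibbs (En: ensemble of fine-tuned language models; Gibbs: Gibbs sampling). The scFvs were displayed on barcoded MATa yeast, the peptide on MATalpha yeast. Binding brings cells together so that they mate, and sequencing counts the barcode pairs among the diploids. Each replicate has its own calibration line, from reference interactions of the BCL2 family. Each pool was mated in six replicate cultures.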

Parent: Ab-14, a human scFv built as VH, a (GGGGS)3 linker, VL. Only the CDRs of the light chain vary.
VH: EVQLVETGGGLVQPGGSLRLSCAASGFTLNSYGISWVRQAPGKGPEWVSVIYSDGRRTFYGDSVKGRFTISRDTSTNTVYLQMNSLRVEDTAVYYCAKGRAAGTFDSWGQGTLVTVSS
VL: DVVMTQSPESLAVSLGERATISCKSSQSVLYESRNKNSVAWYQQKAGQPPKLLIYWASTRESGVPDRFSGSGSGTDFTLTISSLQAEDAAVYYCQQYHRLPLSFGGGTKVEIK

The parent's light chain CDRs are KSSQSVLYESRNKNSVA, WASTRES, QQYHRLPLS; each variant's own CDRs replace them letter for letter. Values are log10 of the apparent Kd in nM; lower means stronger binding. The mean shown is taken over the replicates in which the pair was detected. A pair that was not seen in that replicate is written "ND"; this usually means weak binding, but a binder can also be missed.

For TLGNQPTEMRDNKHAVA | DDNQRDR | QQYMRLPLS, the assay gave 0.54, 0.73, 0.32, 0.55, 0.61, 0.53 (mean 0.55; controls 0 of 18).
For TLQDWGIYGMENMNRIA | ERSKLEM | QQYFRLPLS, the assay gave 0.80, 0.45, 0.24, 0.22, 0.18, 0.61 (mean 0.42; controls 0 of 18).
For SLYEWETVGQDKSNNIA | EDSHLLE | QQYFHLPLK, the assay gave 1.35, ND, 1.22, ND, ND, ND (mean 1.29; controls 0 of 18).
For QFDLHHKQIETIESAVA | ETSVRAD | QSYDRLPLS, the assay gave 1.43, 1.73, 1.89, 1.67, 1.93, 1.83 (mean 1.75; controls 3 of 18).
For HLELKVGGVQAVGYSVA | HASQRQA | QQYYQLPLT, the assay gave 0.91, 0.36, 0.16, -0.01, 0.34, 0.37 (mean 0.36; controls 0 of 18).
For SLSHDQGDETNHWENVA | QDHYRAN | QDYSRLPLS, the assay gave 1.21, 1.56, 2.15, ND, 1.34, 3.20 (mean 1.89; controls 0 of 18).
For MISNEQAYGYSATNSVA | DVTEKLN | QQYKRLPLT, the assay gave 0.63, 0.54, 0.30, 0.44, 0.59, 0.77 (mean 0.54; controls 0 of 18).
For NIRGVEFESAMMGNSVA | GVDLREA | QQYFRLPLH, the assay gave 0.55, 0.57, 0.51, 0.41, 0.29, 0.62 (mean 0.49; controls 1 of 18).
For RLQADDNGYEGMRNNVA | DGAMVRM | QQYARLPLM, the assay gave 0.49, 0.73, 0.61, 0.70, 0.74, 0.79 (mean 0.68; controls 0 of 18).
For TLMHHQDRQDNWKKSIA | EAIIRES | QQYSRLPLA, the assay gave 1.87, 1.32, 2.01, 1.89, 3.95, 1.77 (mean 2.14; controls 1 of 18).
For MFSDEIYAYENQANSIA | EKTELVF | QDYHRLPFA, the assay gave 0.75, 0.25, 0.52, 0.41, 0.61, 0.84 (mean 0.56; controls 0 of 18).
For HITDVMYNNNEGMQSIA | DKAISVN | QQYFRLPLD, the assay gave 0.96, 1.01, 2.39, 0.83, 1.25, 1.78 (mean 1.37; controls 0 of 18).
For HSSPSWLYDSRNKNHVA | NASTRES | QQYHRLPLS, the assay gave 0.36, 0.13, -0.11, -0.20, 0.00, 0.08 (mean 0.04; controls 0 of 18).
For KIERATKGDEYFQESIA | KGDIREK | QQYAQLPLT, the assay gave 1.52, 1.31, 2.06, 1.01, 1.47, 1.81 (mean 1.53; controls 2 of 18).
For KLSDPTVEWIANQSAVA | EHADTVH | QQYARLPLT, the assay gave ND, 2.90, ND, ND, 2.76, 2.43 (mean 2.70; controls 1 of 18).
For MMKQSIEGNPLNTNNIA | DADSVTE | QQYARLPLF, the assay gave 0.16, -0.18, -0.11, -0.32, -0.18, 0.16 (mean -0.08; controls 1 of 18).
For SLIPFENQIMKGLNNIA | NTQVRAS | QQYMRLPFV, the assay gave 0.56, 0.33, 0.21, 0.35, 0.24, 0.72 (mean 0.40; controls 0 of 18).
For KLSLGLGVQKQVEYNIA | NERLKIA | QQYDRLPLT, the assay gave 0.60, 0.94, 0.84, 0.62, 0.74, 0.90 (mean 0.77; controls 0 of 18).
For HFAKQLTSLANSKQNVA | NASTVMV | QHYNRLPLS, the assay gave ND, 0.47, ND, 0.60, ND, ND (mean 0.53; controls 0 of 18).
For KLYYHEVGEVNGQNSIA | ETDQLTF | QQYSHLPLS, the assay gave 1.72, 1.67, 1.65, 1.47, 1.56, 1.91 (mean 1.67; controls 2 of 18).
For YMSSQAAQDRNQQYSIA | GVDYREK | QQYYHLPLS, the assay gave 0.97, 0.53, 1.19, 0.59, 1.04, 1.30 (mean 0.94; controls 3 of 18).
For ALAYTLHQNQSNQSNIA | QVQEREV | QQYYRLPLG, the assay gave ND, 2.71, ND, ND, ND, ND (controls 0 of 18).
For RIDDYPNMLGKNIESIA | EAALTLT | QQYARLPLS, the assay gave 1.28, 1.03, 1.49, 0.87, 1.32, 1.26 (mean 1.21; controls 0 of 18).
For KIQHQHVGNWKTANNIA | QGDQRCQ | QSYDRLPLS, the assay gave 1.58, 1.11, 1.62, 1.48, 1.86, 1.81 (mean 1.58; controls 3 of 18).
For QYSENLEIYDQEQGNVA | HGEMRTE | QQYHKLPLS, the assay gave 0.37, 0.34, 0.30, 0.44, 0.42, 0.70 (mean 0.43; controls 1 of 18).
For KLSLSLSFSLRGTRAIA | DGSTRAH | QQYHRLPLT, the assay gave 2.42, 0.47, 0.30, 0.93, -0.55, 0.22 (mean 0.63; controls 0 of 18).
For KVSDPMVEWYANQSAVA | DHADVQH | QQYARLPLS, the assay gave 2.55, 2.79, 2.47, 2.57, 2.87, 2.13 (mean 2.57; controls 3 of 18).
For NLKEMEGDNQTKHKNIA | SVDQTMT | QQYFRLPLA, the assay gave 0.81, 0.80, 0.77, 0.99, 0.60, 1.04 (mean 0.84; controls 1 of 18).
For KITHQMFTGMMQKSAMA | NGAMRVE | QFYSRLPLF, the assay gave 0.55, -0.24, 0.45, -0.16, -0.17, -0.10 (mean 0.06; controls 0 of 18).
For MFSYNLHDMGANKNSVA | EMNKVTG | QDYHRLPLA, the assay gave 0.87, 0.92, 1.00, 0.97, 0.81, 1.04 (mean 0.94; controls 0 of 18).
For KLQNLMGTMGKQNQAIA | QGAITRV | QQYQHLPLW, the assay gave ND, ND, ND, ND, ND, ND (controls 1 of 18).

Top 5 of the variants detected in all replicates, tightest first:

{"CDR-L1": "MMKQSIEGNPLNTNNIA", "CDR-L2": "DADSVTE", "CDR-L3": "QQYARLPLF", "log10 Kd, replicates": "0.16, -0.18, -0.11, -0.32, -0.18, 0.16", "mean log10 Kd (nM)": "-0.08", "signal with controls": "1 of 18"}
{"CDR-L1": "HSSPSWLYDSRNKNHVA", "CDR-L2": "NASTRES", "CDR-L3": "QQYHRLPLS", "log10 Kd, replicates": "0.36, 0.13, -0.11, -0.20, 0.00, 0.08", "mean log10 Kd (nM)": "0.04", "signal with controls": "0 of 18"}
{"CDR-L1": "KITHQMFTGMMQKSAMA", "CDR-L2": "NGAMRVE", "CDR-L3": "QFYSRLPLF", "log10 Kd, replicates": "0.55, -0.24, 0.45, -0.16, -0.17, -0.10", "mean log10 Kd (nM)": "0.06", "signal with controls": "0 of 18"}
{"CDR-L1": "HLELKVGGVQAVGYSVA", "CDR-L2": "HASQRQA", "CDR-L3": "QQYYQLPLT", "log10 Kd, replicates": "0.91, 0.36, 0.16, -0.01, 0.34, 0.37", "mean log10 Kd (nM)": "0.36", "signal with controls": "0 of 18"}
{"CDR-L1": "SLIPFENQIMKGLNNIA", "CDR-L2": "NTQVRAS", "CDR-L3": "QQYMRLPFV", "log10 Kd, replicates": "0.56, 0.33, 0.21, 0.35, 0.24, 0.72", "mean log10 Kd (nM)": "0.40", "signal with controls": "0 of 18"}

Of ten entries with the parent sequence, four were seen in most replicates (averages 0.34 to 2.37), three in one and three in none, so single entries are noisy. In the paper, a design with two or fewer of six values counts as a poor binder. Values of this round are not directly comparable with the first-round values of the same sequences. Background: pairings of all light chain designs with three empty control strains gave a value in 4% of cases (median 2.64, 5th percentile 1.59). Values in that range, when seen in few replicates, are hard to tell from nonspecific mating. The control count says in how many pairings with the empty strains this scFv gave a signal.